According to patent US20240360179A1, “STAPLED PEPTIDES AND METHODS THEREOF” (FOG PHARMACEUTICALS, INC., priority 2021, published 2024):
Read-outs that look alike come from different tables or passages of the source.

Chains of the proteins cited; added tags and fusions are not shown.
UniProt P35222, whole entry: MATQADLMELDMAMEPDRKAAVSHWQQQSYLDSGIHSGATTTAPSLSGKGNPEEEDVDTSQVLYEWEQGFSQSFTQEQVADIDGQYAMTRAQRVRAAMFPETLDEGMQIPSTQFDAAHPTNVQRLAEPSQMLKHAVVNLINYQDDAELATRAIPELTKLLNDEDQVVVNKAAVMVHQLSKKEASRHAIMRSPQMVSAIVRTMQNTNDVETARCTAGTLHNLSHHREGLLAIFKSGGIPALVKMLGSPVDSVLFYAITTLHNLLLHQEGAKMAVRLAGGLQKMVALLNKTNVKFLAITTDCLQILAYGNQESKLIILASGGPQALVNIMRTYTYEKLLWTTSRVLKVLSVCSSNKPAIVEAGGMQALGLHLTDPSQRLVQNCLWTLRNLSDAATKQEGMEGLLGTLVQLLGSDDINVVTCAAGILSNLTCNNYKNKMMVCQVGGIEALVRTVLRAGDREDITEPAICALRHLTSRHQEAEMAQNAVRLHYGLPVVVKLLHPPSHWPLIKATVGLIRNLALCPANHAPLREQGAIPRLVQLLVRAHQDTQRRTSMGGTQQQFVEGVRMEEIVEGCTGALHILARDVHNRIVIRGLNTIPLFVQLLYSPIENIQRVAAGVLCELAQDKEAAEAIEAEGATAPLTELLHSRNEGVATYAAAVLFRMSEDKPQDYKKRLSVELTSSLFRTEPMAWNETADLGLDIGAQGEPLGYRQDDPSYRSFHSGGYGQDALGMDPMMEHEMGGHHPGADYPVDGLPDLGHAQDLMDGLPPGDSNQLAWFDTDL

Assays:
[1] = target: beta-catenin/TCF4 interaction (Homo sapiens, UniProt P35222); assay type: cell-based; parameters: host or cells: HEK293; settings: read-out: NanoBRET Abs IC50
[2] = target: T1, full-length B-Catenin (Uniprot ID P35222) (Homo sapiens, UniProt P35222); assay type: binding; settings: competition fluorescence polarization; read-out: beta-Catenin FP IC50
T1 construct: 10 nM full-length B-Catenin (Uniprot ID P35222)

Ac-PL3-isoDAsp-Npg-B5-Asp-3COOHF-Aib-Ala-Phe-Lys*3-PyrS2-3Thi-BztA-GlnR*3-Ala-NH2 [I-957]
IC50 [1]: 3000 to 10000 nM
IC50 [2]: < 50 nM

Ac-PL3-Asp-Chg-B5-Asp-3COOHF-Aib-aThr-Phe-Lys*3-PyrS2-3Thi-BztA-GlnR*3-Ala-NH2 [I-998]
IC50 [1]: 3000 to 10000 nM
IC50 [2]: < 50 nM

Ac-PL3-Asp-Npg-B5-Asp-3COOHF-Aib-Ala-Phe-Lys*3-PyrS2-HexG-BztA-GlnR*3-Ala-NH2 [I-936]
IC50 [1]: > 10000 nM
IC50 [2]: 50 to 200 nM

Ac-PL3-Asp-Npg-B5-Asp-3COOHF-Aib-Ala-Phe-Lys*3-PyrS2-3Thi-BztA-GlnR*3-Gln-NH2 [I-724]
IC50 [1]: 1500 to 3000 nM
IC50 [2]: < 50 nM

Ac-PL3-Asp-Npg-B5-Asp-3COOHF-Aib-Ala-Phe-Lys*3-PyrS2-Phe-34ClF-GlnR*3-Phe-NH2 [I-874]
IC50 [1]: 3000 to 10000 nM
IC50 [2]: < 50 nM

Ac-PL3-Asp-Npg-B5-Asp-3COOHF-Ala-Ala-Phe-Lys*3-PyrS2-Phe-34ClF-GlnR*3-Leu-Ser-NH2 [I-839]
IC50 [1]: 1500 to 3000 nM
IC50 [2]: < 50 nM

Ac-PL3-Asp-Npg-B5-Asp-3COOHF-[diaminopentane]GlnR-Ala-Phe-Leu-PyrS2-2F3MeF-BztA-GlnR-NH2 [I-704]
IC50 [1]: 3000 to 10000 nM
IC50 [2]: < 50 nM

Ac-PL3-Asp-DipA-B5-Asp-3COOHF-CyLeu-Ala-Phe-Lys*3-PyrS2-2F3MeF-BztA-GlnR*3-Leu-NH2 [I-1770]
IC50 [1]: > 10000 nM
IC50 [2]: 50 to 200 nM

Ac-PL3-Asp-Npg-B5-Asp-3COOHF-Aib-Ala-Phe-Lys*3-PyrS2-3Thi-BztA-GlnR*3-Trp-NH2 [I-726]
IC50 [1]: 3000 to 10000 nM
IC50 [2]: 50 to 200 nM

Ac-PL3-Asp-Npg-B5-Asp-3COOHF-Ala-Ala-Phe-Leu-[SBut][CH2CH2NH]Dap-3thi-BztA-Ala-GlnR-NH2 [I-1215]
IC50 [1]: > 10000 nM
IC50 [2]: < 50 nM

Ac-PL3-Asp-Npg-B5-Asp-3COOHF-Aib-Ala-Phe-Lys*3-PyrS2-3Thi-BztA-GlnR*3-Val-aThr-Ala-NH2 [I-511]
IC50 ([1]; absolute IC50): 1500 to 3000 nM
IC50 [2]: < 50 nM

Ac-S5-AcLys-Asp-DipA-B5-Asp-3COOHF-Aib-Ala-Phe-Lys*3-PyrS1-3Thi-BztA-GlnR*3-NH2 [I-1873]
IC50 [1]: > 10000 nM
IC50 [2]: < 50 nM

Ac-PL3-Asp-Npg-B5-Asp-3COOHF-Aib-Ala-Phe-Lys*3-PyrS2-3Thi-BztA-GlnR*3-Aib-Ala-NH2 [I-405]
IC50 ([1]; absolute IC50): < 1500 nM
IC50 [2]: < 50 nM

Ac-PL3-Asp-Npg-B5-Asp-3COOHF-Aib-Ala-Phe-Lys*3-PyrS2-2Thi-34ClF-GlnR*3-Ala-NH2 [I-913]
IC50 [1]: 1500 to 3000 nM
IC50 [2]: < 50 nM

Ac-PL3-Asp-Npg-B5-Asp-3COOHF-Aib-Ala-Phe-Lys*3-PyrS2-2Thi-BztA-GlnR*3-Leu-Ser-NH2 [I-925]
IC50 [1]: 1500 to 3000 nM
IC50 [2]: < 50 nM

lithocholate-PL3-Asp-Npg-B5-Asp-3COOHF-Aib-Ala-Phe-Lys*3-PyrS2-3Thi-BztA-GlnR*3-Ala-NH2 [I-751]
IC50 [1]: > 10000 nM
IC50 [2]: 200 to 750 nM

Ac-PL3-Asp-Npg-B5-Asp-3COOHF-Aib-Ala-Phe-Lys*3-Az3-3Thi-BztA-GlnR*3-Ala-NH2 [I-948]
IC50 [1]: > 10000 nM
IC50 [2]: < 50 nM

Ac-PL3-Asp-Npg-B5-Asp-3COOHF-Aib-Ala-Phe-Lys*3-PyrS2-HepG-34ClF-GlnR*3-Ala-NH2 [I-944]
IC50 [1]: > 10000 nM
IC50 [2]: < 50 nM

Ac-PL3-Asp-Npg-B5-Asp-3COOHF-Aib-Ala-Phe-Lys*3-PyrS2-2F3MeF-34ClF-GlnR*3-Ser-NH2 [I-865]
IC50 [1]: 3000 to 10000 nM
IC50 [2]: < 50 nM

Ac-PL3-Asp-Npg-B5-Asp-3COOHF-Phe-Ala-Phe-Lys*3-PyrS2-2Thi-BztA-GlnR*3-Ala-NH2 [I-927]
IC50 [1]: 1500 to 3000 nM
IC50 [2]: < 50 nM

Ac-PL3-Asp-Npg-B5-Asp-3COOHF-Aib-Ala-Phe-dOrn*3-PyrS2-3Thi-BztA-AsnR*3-NH2 [I-792]
IC50 [1]: > 10000 nM
IC50 [2]: < 50 nM

Ts-PL3-Asp-Npg-B5-Asp-3COOHF-Aib-Ala-Phe-Lys*3-PyrS2-3Thi-BztA-GlnR*3-Ala-NH2 [I-756]
IC50 [1]: > 10000 nM
IC50 [2]: < 50 nM

2PymCO-PL3-Asp-Npg-B5-Asp-3COOHF-Aib-Ala-Phe-Lys*3-PyrS2-3Thi-BztA-GlnR*3-Ala-NH2 [I-909]
IC50 [1]: 3000 to 10000 nM
IC50 [2]: < 50 nM

Ac-PL3-Asp-DipA-B5-Asp-3COOHF-Leu-Ala-Phe-Lys*3-PyrS2-3Thi-BztA-GlnR*3-Ala-NH2 [I-985]
IC50 [1]: < 1500 nM
IC50 [2]: < 50 nM

Ac-PL3-Asp-Npg-B5-Asp-3COOHF-Aib-Ala-Phe-Lys*3-PyrS2-3Thi-BztA-GlnR*3-Ala-Val-Pro-Thr-Leu-Lys-NH2 [I-812]
IC50 [1]: 1500 to 3000 nM
IC50 [2]: < 50 nM

Ac-PL3-Asp-Npg-B5-Asp-3COOHF-Aib-Ala-Phe-Lys*3-PyrS2-Npg-BztA-GlnR*3-Ala-NH2 [I-278]
IC50 [1]: > 10000 nM
IC50 [2]: 50 to 200 nM

Ac-PL3-Asp-Npg-B5-Asp-3COOHF-Aib-Ala-Phe-Lys*3-PyrS2-3Thi-BztA-GlnR*3-Ala-Ala-Val-Pro-Thr-Leu-Lys-NH2 [I-813]
IC50 [1]: 1500 to 3000 nM
IC50 [2]: < 50 nM

Ac-PL3-Asp-Ile-B5-Asp-3COOHF-Phe-Ala-Phe-Lys*3-PyrS2-3Thi-BztA-GlnR*3-Ala-NH2 [I-729]
IC50 [1]: < 1500 nM
IC50 [2]: < 50 nM

Ac-PL3-Asp-Npg-B5-Asp-3COOHF-Aib-Ala-Phe-Lys*3-PyrS2-3Thi-BztA-GlnR*3-Npg-NH2 [I-717]
IC50 [1]: 1500 to 3000 nM
IC50 [2]: < 50 nM

Ac-PL3-Asp-Npg-B5-Asp-3COOHF-Aib-Ala-Phe-Lys*3-PyrS2-3Thi-BztA-GlnR*3-Gly-NH2 [I-714]
IC50 [1]: < 1500 nM
IC50 [2]: < 50 nM

Ac-PL3-Asp-Npg-B5-Asp-3COOHF-[Phc]Acp-Ala-Phe-Lys*3-PyrS2-3Thi-BztA-GlnR*3-Ala-NH2 [I-1028]
IC50 [1]: > 10000 nM
IC50 [2]: < 50 nM

Ac-PL3-Asp-Npg-B5-Asp-3COOHF-Ala-Ala-Phe-Lys*3-SPip3-3Thi-BztA-GlnR*3-Ala-NH2 [I-781]
IC50 [1]: > 10000 nM
IC50 [2]: < 50 nM

Ac-PL3-Asp-Npg-B5-Asp-3COOHF-Ala-Ala-Phe-Lys*3-PyrS2-Phe-34ClF-GlnR*3-Leu-NH2 [I-837]
IC50 [1]: 3000 to 10000 nM
IC50 [2]: < 50 nM

Ac-PL3-Asp-Npg-B5-Asp-3COOHF-Aib-Ala-Phe-Lys*3-PyrS2-3Thi-BztA-GlnR*3-Ala-Ala-Leu-NH2 [I-805]
IC50 [1]: 1500 to 3000 nM
IC50 [2]: < 50 nM

Ac-PL3-Asp-DipA-B5-Asp-3COOHF-CyLeu-Ala-Phe-Lys*3-PyrS2-2F3MeF-BztA-GlnR*3-Phe-NH2 [I-1777]
IC50 [1]: > 10000 nM
IC50 [2]: 50 to 200 nM

Ac-PL3-Asp-Npg-B5-Asp-3COOHF-Leu-Ala-Phe-Lys*3-PyrS2-2Thi-34ClF-GlnR*3-Ala-NH2 [I-917]
IC50 [1]: 3000 to 10000 nM
IC50 [2]: < 50 nM

Ac-PL3-Asp-Npg-B5-Asp-3COOHF-Aib-Ala-Phe-1MeK*3-PyrS2-3Thi-BztA-hGlnR*3-Ala-NH2 [I-710]
IC50 [1]: 1500 to 3000 nM
IC50 [2]: < 50 nM

Ac-PL3-Asp-DipA-B5-Asp-3COOHF-Aic-Ala-Phe-Lys*3-PyrS2-3Thi-BztA-GlnR*3-Ala-NH2 [I-845]
IC50 [1]: 3000 to 10000 nM
IC50 [2]: < 50 nM

Ac-PL3-NGlu-Npg-B5-Asp-3COOHF-Aib-Ala-Phe-Lys*3-PyrS2-3Thi-BztA-GlnR*3-Ala-NH2 [I-935]
IC50 [1]: > 10000 nM
IC50 [2]: 50 to 200 nM

Ac-PL3-Asp-Npg-B5-Asp-3COOHF-Aib-Ala-Phe-Lys*3-PyrS2-3Thi-BztA-GlnR*3-Ala-Ala-Val-Pro-Ala-Leu-Arg-NH2 [I-817]
IC50 [1]: 1500 to 3000 nM
IC50 [2]: < 50 nM

Ac-PL3-Asp-Npg-B5-Asp-3COOHF-Aib-Ala-2Thi-Lys*3-PyrS2-2Thi-34ClF-GlnR*3-Ala-NH2 [I-921]
IC50 [1]: 3000 to 10000 nM
IC50 [2]: 50 to 200 nM

Ac-PL3-Asp-Chg-B5-Asp-3COOHF-Aic-Ala-Phe-Lys*3-PyrS2-3Thi-BztA-GlnR*3-Ala-NH2 [I-844]
IC50 [1]: 1500 to 3000 nM
IC50 [2]: < 50 nM

Ac-PL3-Asp-Npg-B5-Asp-TfeGA-Aib-Ala-Phe-Lys*3-PyrS2-2F3MeF-34ClF-GlnR*3-Ala-NH2 [I-892]
IC50 [1]: > 10000 nM
IC50 [2]: < 50 nM

Ac-PL3-Asp-Npg-B5-Asp-3COOHF-Aib-Ala-Phe-Lys*3-PyrS2-3Thi-BztA-GlnR*3-Ala-Ala-Leu-Leu-NH2 [I-806]
IC50 [1]: 1500 to 3000 nM
IC50 [2]: < 50 nM

Isovaleryl-PL3-Asp-Npg-B5-Asp-3COOHF-Aib-Ala-Phe-Lys*3-PyrS2-3Thi-BztA-GlnR*3-Ala-NH2 [I-801]
IC50 [1]: > 10000 nM
IC50 [2]: < 50 nM

Ac-PL3-Asp-Lys**3-B5-Asp-3COOHF-GlnR**3-Ala-Phe-Lys*3-PyrS2-3Thi-BztA-GlnR*3-Ala-NH2 [I-743]
IC50 [1]: > 10000 nM
IC50 [2]: 200 to 750 nM

5hexenyl-MePro-Asp-[Phc][Allyl]Dap-R5-Asp-3COOHF-Aib-Ala-Phe-Lys*3-PyrS2-3Thi-BztA-GlnR*3-Ala-NH2 [I-818]
IC50 [1]: > 10000 nM
IC50 [2]: < 50 nM
